Source: ChEMBL document CHEMBL3352462, “Aldosterone synthase inhibitors as promising treatments for mineralocorticoid dependent cardiovascular and renal diseases” (J Med Chem, 2014)

Legend:
[1] = biological target: T1, Cytochrome P450 11B2, mitochondrial (Homo sapiens, UniProt P19099); experiment: Inhibition of human aldosterone synthase expressed in V79 MZ cells pretreated with compound for 1 hr followed by addition of 500 nM 11-deoxycorticosterone for 1hr by HPLC analysis; format: cell-based, V79MZ
T1 sequence (P19099 whole entry): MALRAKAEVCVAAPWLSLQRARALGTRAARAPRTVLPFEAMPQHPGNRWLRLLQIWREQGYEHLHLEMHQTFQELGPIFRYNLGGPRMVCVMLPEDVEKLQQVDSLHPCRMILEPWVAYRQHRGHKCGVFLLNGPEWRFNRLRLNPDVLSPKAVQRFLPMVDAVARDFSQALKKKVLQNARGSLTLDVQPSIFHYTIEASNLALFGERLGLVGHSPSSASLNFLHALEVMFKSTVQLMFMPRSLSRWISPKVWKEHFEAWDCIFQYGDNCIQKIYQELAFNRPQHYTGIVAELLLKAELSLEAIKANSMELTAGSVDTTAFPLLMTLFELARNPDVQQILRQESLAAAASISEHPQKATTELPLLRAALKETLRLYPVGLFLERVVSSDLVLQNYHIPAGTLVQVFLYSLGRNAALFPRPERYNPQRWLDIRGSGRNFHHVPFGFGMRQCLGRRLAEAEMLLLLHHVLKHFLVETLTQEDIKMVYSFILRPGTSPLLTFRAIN

[2] = biological target: T2, Cytochrome P450 11B1, mitochondrial (Homo sapiens, UniProt P15538); experiment: Inhibition of human CYP11B1 expressed in V79 MZ cells pretreated with compound for 1 hr followed by addition of 500 nM 11-deoxycorticosterone for 3 hrs by HPLC analysis; format: cell-based, V79MZ
T2 sequence (P15538 whole entry): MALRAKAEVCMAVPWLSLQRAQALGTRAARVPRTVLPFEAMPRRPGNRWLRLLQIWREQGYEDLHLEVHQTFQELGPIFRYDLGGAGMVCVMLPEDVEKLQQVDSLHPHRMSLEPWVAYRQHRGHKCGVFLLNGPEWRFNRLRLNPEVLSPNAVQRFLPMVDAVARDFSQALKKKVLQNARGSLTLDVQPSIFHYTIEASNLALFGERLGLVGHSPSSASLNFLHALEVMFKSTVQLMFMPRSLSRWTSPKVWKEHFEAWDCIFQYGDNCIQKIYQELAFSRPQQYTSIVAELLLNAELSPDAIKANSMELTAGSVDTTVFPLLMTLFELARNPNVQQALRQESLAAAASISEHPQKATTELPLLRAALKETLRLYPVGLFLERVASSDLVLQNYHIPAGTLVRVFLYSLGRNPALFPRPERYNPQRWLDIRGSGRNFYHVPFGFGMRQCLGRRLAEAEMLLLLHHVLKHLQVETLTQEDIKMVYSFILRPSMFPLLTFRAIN

**Q.** For CC(C)(C(=O)c1cccnc1)c1cccnc1 [METYRAPONE], which IC50 [1] is on record?
**A.** 0.208 µM

**Q.** What about the IC50 [2] of the same compound?
**A.** 0.046 µM
